Assay results published in patent publication US20220265656A1, “COMBINATION THERAPIES WITH IRE1 SMALL MOLECULE INHIBITORS” (Cornell University, priority 2019, published 2022).
Where a name gives a salt, the structure may show the parent alone.

Protein sequences, listed by entry. Tags and fused reporters are not part of them. Residues count along the entry.
UniProt O75460, 19-977 limits assumed: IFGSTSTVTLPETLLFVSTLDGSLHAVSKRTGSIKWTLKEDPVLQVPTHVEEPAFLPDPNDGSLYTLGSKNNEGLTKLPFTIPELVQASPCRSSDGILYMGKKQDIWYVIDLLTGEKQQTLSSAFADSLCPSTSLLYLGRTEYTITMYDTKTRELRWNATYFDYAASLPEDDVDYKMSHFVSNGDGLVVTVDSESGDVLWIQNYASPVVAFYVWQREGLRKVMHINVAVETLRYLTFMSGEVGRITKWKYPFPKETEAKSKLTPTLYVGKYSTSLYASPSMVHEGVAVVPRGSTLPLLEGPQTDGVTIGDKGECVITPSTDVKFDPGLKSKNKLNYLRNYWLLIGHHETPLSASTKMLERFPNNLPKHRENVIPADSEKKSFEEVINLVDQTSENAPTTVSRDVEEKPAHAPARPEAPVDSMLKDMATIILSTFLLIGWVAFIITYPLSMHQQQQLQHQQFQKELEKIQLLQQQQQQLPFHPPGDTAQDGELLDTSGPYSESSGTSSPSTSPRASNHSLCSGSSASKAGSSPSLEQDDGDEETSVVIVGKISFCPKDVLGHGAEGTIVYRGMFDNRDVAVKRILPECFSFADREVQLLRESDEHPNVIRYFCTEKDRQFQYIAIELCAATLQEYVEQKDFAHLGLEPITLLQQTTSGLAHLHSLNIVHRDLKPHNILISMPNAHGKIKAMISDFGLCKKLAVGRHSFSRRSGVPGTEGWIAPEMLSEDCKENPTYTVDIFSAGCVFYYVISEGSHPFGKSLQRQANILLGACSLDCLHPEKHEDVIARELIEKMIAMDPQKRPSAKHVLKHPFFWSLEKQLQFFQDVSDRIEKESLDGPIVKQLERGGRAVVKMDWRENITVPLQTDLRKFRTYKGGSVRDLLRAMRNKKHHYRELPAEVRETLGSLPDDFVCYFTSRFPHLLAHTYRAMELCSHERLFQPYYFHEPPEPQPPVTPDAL

target: IRE1a (Homo sapiens, UniProt O75460); test: In vitro FRET assay (IRE1a cleavage of XBP1 RNA probe); conditions: read-out: Mean IC50, 2 nM IRE1a
Protocol: In vitro FRET assay was performed to evaluate the ability of select compounds to inhibit IRE1, the results of which are summarized in Table 3. To perform the in vitro FRET assay, 1× complete assay buffer (CAB; […], 50 mM sodium citrate pH 7.15, 1 mM magnesium acetate, 0.02% tween 20) was used to dilute SignalChem IRE1a protein to a final concentration of 2 nM. Selected compounds were serially diluted with DMSO in a non-binding black 384-well plate for a total of 15 ul in each well, 2 ul of the serially diluted compound or DMSO control were then added to new wells containing 98 ul of 1×CAB, for a total volume of 100 ul, 10 ul of which were then transferred to wells of a new plate, 5 ul of the diluted IRE1a was then added to each well, 5 ul of a […] XBP1 RNA probe was then added to each well. Fluorescence was then read over 30 minutes in kinetic mode (485/515 nm).
Two RNA probes were used, XBP1 wildtype (SEQ ID NO: 2) which is able to be spliced by active IRE1a or XBP1 mutant (SEQ ID NO: 3) which is unable to be spliced. Each probe contained a 5′ 6-FAM modification and a 3′ IOWA Black FQ modification. […]

Question: `CCc1cc(-c2ccc(NS(=O)(=O)c3ccccc3Cl)c(F)c2)cc2cnc(N[C@H]3CC4C[C@H](N)CC4C3)nc12` (single isomer, unassigned) [82; Formic Acid Salt] was tested. Which IC50 did it give?
Answer: < 5 nM

Question: `CCc1cc(-c2ccc(NS(=O)(=O)c3ccccc3Cl)nc2C)cc2cnc(N[C@H]3CC[C@H](N(C)C)CC3)nc12` [Compound 91, 2-chloro-N-(5-(2-(((1r,4r)-4-(dimethylamino)cyclohexyl)amino)-8-ethylquinazolin-6-yl)-6-methylpyridin-2-yl)benzenesulfonamide] was tested. Which IC50 did it give?
Answer: < 5 nM

same assay, conditions: read-out: Mean IC50, 2 nM IRE1a, tested form: formate

Question: Which IC50 does the source give for `CCc1cc(-c2ccc(NS(=O)(=O)c3ccccc3Cl)nc2C)cc2cnc(N[C@H]3CC[C@H](NC)CC3)nc12` here?
Answer: < 5 nM

Question: How did the IC50 turn out when `COc1nc(NS(=O)(=O)c2ccccc2Cl)ccc1-c1cc(C(C)(F)F)c2nc(N[C@H]3CC[C@H](N(C)C)CC3)ncc2c1` was run?
Answer: < 5 nM

Question: For `CCc1cc(-c2ccc(NS(=O)(=O)c3ccccc3Cl)nc2OC)cc2cnc(N[C@H]3CC[C@H](NC)CC3)nc12`, which IC50 is on record?
Answer: < 5 nM

Question: `COc1nc(NS(=O)(=O)c2ccccc2Cl)ccc1-c1cc2cnc(N[C@H]3CC[C@H](N(C)C)CC3)nc2cc1C` was tested. Which IC50 did it give?
Answer: < 5 nM

Question: `CCc1cc(-c2ccc(NS(=O)(=O)c3ccccc3C)nc2OC)cc2cnc(N[C@H]3CC[C@H](NC)CC3)nc12` was tested. Which IC50 did it give?
Answer: < 5 nM

Question: With `CCc1cc(-c2cc(F)c(NS(=O)(=O)c3ccccc3Cl)nc2C)cc2cnc(N[C@H]3CC[C@H](N(C)C)CC3)nc12` as the molecule, how does the IC50 read?
Answer: < 5 nM

Question: With `CCc1cc(-c2ncc(NS(=O)(=O)c3ccccc3Cl)nc2OC)cc2cnc(N[C@H]3CC[C@H](N(C)C)CC3)nc12` as the molecule, how does the IC50 read?
Answer: < 5 nM

Question: With `CCc1cc(-c2ccc(NS(=O)(=O)c3ccccc3Cl)nc2C)cc2cnc(N[C@H]3CC[C@H](N(C)CC)CC3)nc12` as the molecule, how does the IC50 read?
Answer: < 5 nM
